Reference: patent publication US7078585B1, “Bacterial cell component-unresponsive model mouse” (Japan Science and Technology Agency, priority 1999, dated 2006)

How the values were obtained:
[1] = system: thymocytes; assay: Thymocyte (T cell) proliferation with IL-1 costimulation ([3H]thymidine); format: cell-based, mouse; settings: 20 ng/ml IL-2 with 10 ng/ml PMA or 2.5 μg/ml Con A
Experimental: 1×10^5 of thymocytes of the MyD88 knockout mice of the present invention were cultured in 96-well plates for 72 hours with mixtures containing 2 μg/ml of phytohemagglutinin (PHA), which is a costimulant of IL-1 for T cell proliferation, 2.5 μg/ml of concanavalin A (ConA), or 2 ng/ml of IL-2 respectively, and 100 U/ml of IL-1β (Genzyme), and T cells were proliferated. Proliferation of T cells were examined by measuring [^3H] amount of [^3H] thymidine taken into the cells.
Further, thymocytes of MyD88 knockout mice of the present invention were cultured with 10 ng/ml of phorbol 12-myristate 13-acetate paramethoxyamphetamine (PMA) or 2.5 μg/ml of Con A in the presence of 20 ng/ml of IL-2 (Genzyme) in a same manner as above-mentioned, and enhancement of proliferation was examined. There was no difference between thymocytes of MyD88 knockout mice of the present invention and of wild-type littermates in their proliferation as to the reaction of IL-2 and PMA or Con A (see FIG. 3).

[2] = system: YAC-1 targeting cells; assay: NK lytic activity against 51Cr-labelled YAC-1 target cells; format: cell-based, mouse; settings: splenic cells of MyD88 knockout mice, 24 hours
Experimental: It has been well known that IL-18 enhances lytic activity of NK cells. Splenic […] from MyD88 knockout mice of the present invention and wild-type littermates were cultured in the presence or absence of 20 ng/ml of IL-18 (Hayashibara Biochemical Laboratories, Inc.) for 24 hours with ^51Cr-labelled mouse lymphoma cells (hereinafter “YAC-1”) targeting cells. 4 hours later, released ^51Cr in supernatants were counted by a gamma counter.

## IL-2: IL-2 (Genzyme), cytokine
[1]
  proliferation of thymocytes, MyD88 knockout versus wild-type littermates: no difference
[2]
  lytic activity to YAC-1 targeting cells: lytic activity was also enhanced
